ChEMBL document CHEMBL4038319, “Development of a Potent Inhibitor of the Plasmodium Proteasome with Reduced Mammalian Toxicity” (J Med Chem, 2017)

System: Plasmodium falciparum
Assay: Ratio of kinact to Ki for schizont stage Plasmodium falciparum 20S proteasome beta5 subunit

Row | SMILES | Ratio
1 | CCCCCC(=O)N[C@@H](C(=O)N[C@@H](CCCC)C(=O)N[C@@H](CC(C)C)C(=O)[C@@]1(C)CO1)C(C)C | 158 M⁻¹ s⁻¹
2 | CCCCCC(=O)N[C@H](C(=O)N[C@@H](CCCC)C(=O)N[C@@H](CC(C)C)C(=O)[C@@]1(C)CO1)C(C)C | 768 M⁻¹ s⁻¹
